Here are results for one molecule from US10105382B2, “Therapy regimen and methods to sensitize cancer cells treated with epigenetic therapy to PARP inhibitors in ovarian cancer” (THE JOHNS HOPKINS UNIVERSITY, priority 2014, dated 2018).

Amino acid sequences for entries named in this document (tags omitted).
UniProt P09874, whole entry: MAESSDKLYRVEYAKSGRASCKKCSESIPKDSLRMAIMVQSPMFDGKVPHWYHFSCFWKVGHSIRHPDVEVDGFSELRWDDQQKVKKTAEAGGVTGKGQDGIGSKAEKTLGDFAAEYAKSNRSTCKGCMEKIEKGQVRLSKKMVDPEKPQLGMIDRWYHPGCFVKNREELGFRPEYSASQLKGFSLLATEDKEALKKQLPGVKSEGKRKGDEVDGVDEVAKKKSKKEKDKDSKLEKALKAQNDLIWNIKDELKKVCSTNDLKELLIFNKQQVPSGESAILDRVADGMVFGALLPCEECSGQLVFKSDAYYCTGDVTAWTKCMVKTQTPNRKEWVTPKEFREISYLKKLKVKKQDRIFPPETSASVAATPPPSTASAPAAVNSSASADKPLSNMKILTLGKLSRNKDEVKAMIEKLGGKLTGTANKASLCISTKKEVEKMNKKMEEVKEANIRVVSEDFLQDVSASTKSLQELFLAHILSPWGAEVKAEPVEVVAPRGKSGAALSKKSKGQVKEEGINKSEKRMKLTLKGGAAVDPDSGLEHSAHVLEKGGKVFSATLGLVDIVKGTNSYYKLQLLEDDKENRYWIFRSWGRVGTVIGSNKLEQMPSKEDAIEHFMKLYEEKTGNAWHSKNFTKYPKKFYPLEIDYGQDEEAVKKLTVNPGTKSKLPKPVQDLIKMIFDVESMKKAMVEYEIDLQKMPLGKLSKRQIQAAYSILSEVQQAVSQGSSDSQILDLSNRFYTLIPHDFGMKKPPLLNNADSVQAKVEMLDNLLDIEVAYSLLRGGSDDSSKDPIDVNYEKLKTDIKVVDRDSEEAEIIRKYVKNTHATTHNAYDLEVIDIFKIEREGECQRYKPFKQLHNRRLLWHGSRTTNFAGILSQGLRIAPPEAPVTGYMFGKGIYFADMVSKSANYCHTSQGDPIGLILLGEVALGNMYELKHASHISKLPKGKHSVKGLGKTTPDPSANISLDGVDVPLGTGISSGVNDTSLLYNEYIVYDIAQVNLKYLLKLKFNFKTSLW

SMILES strings stand for the structures.

One test deals with T1, PARP1 (Homo sapiens, UniProt P09874).
T1 construct: chromatin extracts from cells X-irradiated (4Gy) to induce DSBs were examined; endogenous in cells; host or cells: MV411 and MOLM14 AML cells
Description: PARP1 trapping in chromatin, Western blot of chromatin extracts of X-irradiated AML cells. In kind it is cell-based. The conditions noted are these: BMN673 1 nM or 10 nM compared with ABT888 500 nM or 5 μM; 4Gy X-irradiated AML cells. (In general: A western blot detects proteins with antibodies after separation by electrophoresis.)

The next test concerns PARP. The following applies: Shen et al., 2013; cited from earlier work.

`Cn1ncnc1[C@H]1c2n[nH]c(=O)c3cc(F)cc(c23)N[C@@H]1c1ccc(F)cc1` [BMN673]: the PARP1 in chromatin result at PARP1 is reported as “increased in chromatin”. Besides, the “inhibitory activity relative to earlier classes of PARPi's” value with PARP was “up to 100 fold”.
